Source: patent publication US20080200479A1, “Ocaperidone Salts and Pharmaceutical Compositions Containing the Same” (priority 2005, published 2008)

Assay: Solubility of ocaperidone salts and free base in water
Details: ocaperidone salt solubility study in water; ratio to free base
Experimental: In particular, the solubilities of ocaperidone salts were measured as follows:
UV/visible spectrophotometer: Agilent 8453E
Volumetric flask (5 ml, 10 ml, 20 ml, 100 ml) Mechanical pipettes: Biohit (m1000, m200)
Magnetic stirrer: Heidolph MR3001K
A suspension of 100 mg of crystalline ocaperidone salt or ocaperidone free base in 1 ml HPLC grade pure water (pH=6) was prepared. The suspension was kept at fixed and controlled temperature (ex: 25° C.) under magnetic stirring for 24 hours. A sample was taken, filtered and the solubility of the ocaperidone salts or ocaperidone free base was measured after 1 h and 24 h. Results are given in g/100 ml.

Question: Which “times more soluble than the ocaperidone free base form” value does the source give for “Ocaperidone Succinic Acid Salt [Example 1]” here?
Answer: ~357 times
